In PubChem BioAssay AID652189 (Johns Hopkins Ion Channel Center, 2013):
Only a part is listed here, and it is no random draw. The source made the active and inactive calls.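 The calls were made as follows: active = mean duplicate percent inhibition, scaled so buffer wells are 0 and the reference blocker 100, over three buffer SD above buffer mean; inactive = the rest.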

Protein sequences, listed by entry. Tags and fused reporters are not part of them. Lines headed by an entry give the natural chain unless they say otherwise; changes in a name come on top.
UniProt Q8BHY3: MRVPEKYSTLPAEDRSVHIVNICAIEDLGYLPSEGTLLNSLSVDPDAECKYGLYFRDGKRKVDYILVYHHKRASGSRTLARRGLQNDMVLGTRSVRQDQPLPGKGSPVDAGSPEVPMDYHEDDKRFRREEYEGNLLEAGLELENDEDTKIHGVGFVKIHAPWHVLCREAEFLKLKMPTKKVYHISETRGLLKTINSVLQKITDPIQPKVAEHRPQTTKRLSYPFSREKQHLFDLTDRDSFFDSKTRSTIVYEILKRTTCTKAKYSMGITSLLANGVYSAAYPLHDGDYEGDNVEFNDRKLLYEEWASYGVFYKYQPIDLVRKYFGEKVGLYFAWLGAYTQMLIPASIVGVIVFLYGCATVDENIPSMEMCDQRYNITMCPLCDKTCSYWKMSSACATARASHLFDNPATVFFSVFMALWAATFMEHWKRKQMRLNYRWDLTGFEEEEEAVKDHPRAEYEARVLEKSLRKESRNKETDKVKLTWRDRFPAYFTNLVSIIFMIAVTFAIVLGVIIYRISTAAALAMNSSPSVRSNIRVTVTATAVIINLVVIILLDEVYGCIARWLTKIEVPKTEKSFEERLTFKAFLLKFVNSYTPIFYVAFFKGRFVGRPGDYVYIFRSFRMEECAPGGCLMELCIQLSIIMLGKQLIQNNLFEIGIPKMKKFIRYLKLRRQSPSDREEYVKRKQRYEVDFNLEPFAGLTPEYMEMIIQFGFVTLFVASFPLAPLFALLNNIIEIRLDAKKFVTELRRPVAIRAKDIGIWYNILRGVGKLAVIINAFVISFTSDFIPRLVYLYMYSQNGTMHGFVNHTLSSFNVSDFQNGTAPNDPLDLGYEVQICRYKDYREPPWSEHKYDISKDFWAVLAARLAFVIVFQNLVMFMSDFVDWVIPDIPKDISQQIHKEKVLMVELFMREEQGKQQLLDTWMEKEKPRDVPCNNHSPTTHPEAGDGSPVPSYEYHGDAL

target: Anoctamin-1 (Mus musculus) (UniProt Q8BHY3); test: blockers of mouse ANO1 channel, retest – cell-based, re-confirmation, confirmation (AID 652189); conditions: HEK293 TMEM16A/YFP-H148Q, iodide quench fluorescence; at 10 µM; active compounds read high; ionomycin added to raise cell calcium

Structure (SMILES) | inhibition
CCc1nc2c(n1)c1c(non1O)c1c2no[n+]1[O-] | active: 17.5%
